Measurements published in patent US10034922B2, “Peptide having angiogenesis inhibitory activity and composition containing same” (GemVax & KAEL Co., Ltd., priority 2013, dated 2018).

How the values were obtained:
MC38 tumor = test: Proliferating cells in tumor sections (PCNA immunohistochemistry); type: in vivo, mouse; details: PCNA staining, PEP1 treated group
Description: For evaluating the apoptosis of tumor, by using formalin-fixed and Paraffin-embedded tumor sections, the DNA fragmentation was analyzed by Tunnel assay. According to the manufacturer's instruction, the tumor section was stained by the apoptosis detection kit (ApopTag Peroxidase In Situ, Millipore). The proliferating cells in tumor were detected by using PCNA (Proliferating cell nuclear antigen). For searching the antigen, the tissue sections were deparaffinized in 10 μM citrate (pH6.0) buffer during 40 minutes, hydrated, and heated. The tissues were stained by anti-mouse PCNA monoclonal antibody (ab29, Abcam). After the second treatment and development of antibody, the tissue sections were contrast stained by H&E staining method. And then, the field was randomly selected from the 6 slides of each treatment groups, and the field was analyzed by Leica Qwin software for quantification.

HSP70 [1] = test: HSP70 protein level by immunoblotting, serum-free media, 2 h treatment; type: cell-based, human; details: for amount of HSP70, comparison with HSP inhibitors: 17-AAG 1 μM, KNK437 1 μM; for HSP70 level: increasing concentration, serum-free
Description: Jurkat and MCF7 cells ([…]) were seeded and incubated for 12 hours. After treating the starvation for 2 hours by adding the OPTI-MEM media, same as the shown figure, the cells were treated by the PEP1 at the different concentrations, by the scrambled peptides, […] (1 μM) or KNK437 (1 μM). After the 2-hour incubation, the cells were collected and lysated by using cell lysis buffer (Thermo Scientific, IL, USA). By using Bradford Protein Assay (Bio-Rad, USA), the protein concentration was quantified, and the samples were treated by SDS-PAGE and immunoblotting with α-HSP70 (sc-32239 and sc-66048, Santa Cruz, Calif., USA), α-HSP90 (ab1429, abcam, USA), α-GRP78 (sc-13968), α-HIF-1a (sc-10790) or α-GAPDH (sc-25778) antibodies. The immune reactive band was visualized by the intensive chemiluminescence kit (iNtRoN Biotechnology, INC, Korea), and analyzed by ImageQuant™ LAS-4000 (GE Healthcare Life Science, NJ, US).

HSP90 [2] = test: HSP90 protein level by flow cytometry; type: cell-based, human; details: MCF7 cells
Description: (§1) MCF7 cells were treated by the PEP1 or the control group. For the proteasome inhibition test, during the incubation, the cells were treated by the 5 μM proteasome inhibitor MG132 (Calboicam). By using the trypsin, the cells were separated and rinsed by the cold PBS (phosphate buffered saline) and the FACS buffer (PBS containing 1% BSA and 0.1% NaN3). For the intracellular staining, the cells were treated by the permeabilization buffer (eBioscience, CA, USA) following the instruction of the manufacturer. The cells were reacted with α-HSP70-FITC (ab61907, Abcam) or α-HSP90-PE (ab65171, Abcam) at the 4° C. for 30 minutes. By using FACScan flow cytometer (Becton Dickinson Co., CA, USA), the flow cytometry analysis was done. The data were analyzed by using Flowjo™ software (version 10.0.5, Tree Star, Inc., OR, USA).

HSP90 [3] = test: Secreted HSP90 level in blood of tumor-bearing mice (ELISA); type: in vivo, mouse; details: serum of MC38 tumor mice, PEP1 50 μg/kg
Description: 7 week-old BALB/c athymic mice (Nu/Nu) (10 mice per group; n=20, female, Orient Bio Co. Gyunggido, Korea) were divided into two groups randomly after the subcutaneous injection of murine colon carcinoma MC38 (5×10^5 cells/ml in 200 μl PBS per site). PEP1 (50 μg/kg in 100 μl 0.9% NaCl solution) or PBS were injected into the mice once per 2 days. When the size of tumor reaches 10 mm, the PEP1 and PBS were injected to the inside of tumor. The size of tumor was measured in once per 2 days, and the volume of tumor was calculated following equation; volume (mm3)=((width2×length)/2). All experiments were approved by the Institute for Experimental Animals (College of Medicine, Seoul National University at Seoul, Korea). VEGF secretion in cancer cells was confirmed by ELISA (Enzyme-linked immunosorbent assay). MCF7 and HeLa cells were incubated in the hypoxia circumstance or the normoxia circumstance after adding PEP1 or vehicle during 24 hours. The amount of VEGF in the cell supernant was confirmed by human VEGF immune analysis kit (R&D Systems, USA) following the instruction of the manufacturer. For analyzing the concentration of HSP70 and HSP90 in blood, the blood was collected from the mouse model having tumor. […]

VEGF = VEGF secretion by cancer cells (ELISA); type: cell-based, human; details: MCF7 and HeLa cells, induced hypoxia, PEP1 20 μM, 24 hours
Description: VEGF secretion in cancer cells was confirmed by ELISA (Enzyme-linked immunosorbent assay). MCF7 and HeLa cells were incubated in the hypoxia circumstance or the normoxia circumstance after adding PEP1 or vehicle during 24 hours. The amount of VEGF in the cell supernant was confirmed by human VEGF immune analysis kit (R&D Systems, USA) following the instruction of the manufacturer. For analyzing the concentration of HSP70 and HSP90 in blood, the blood was collected from the mouse model having tumor. After the preparation of the serum, the concentration of HSP70 and HSP90 in blood was confirmed by the immune analysis kit for HSP70 (R&D systems, USA) and HSP90 (Cusabio Biotech co., Ltd, DE, USA).

HSP70 [4] = test: HSP70 protein level by flow cytometry; type: cell-based, human; details: MCF7 cells
Description: as §1

SMILES: CC[C@H](C)[C@H](NC(=O)[C@H](Cc1ccccc1)NC(=O)[C@H](CCCNC(=N)N)NC(=O)[C@H](CC(C)C)NC(=O)[C@H](CCCNC(=N)N)NC(=O)[C@H](CO)NC(=O)[C@@H](NC(=O)[C@H](CC(C)C)NC(=O)[C@H](CC(C)C)NC(=O)[C@H](C)NC(=O)[C@@H]1CCCN1C(=O)[C@H](CCCNC(=N)N)NC(=O)[C@H](C)NC(=O)[C@@H](N)CCC(=O)O)[C@@H](C)O)C(=O)N1CCC[C@H]1C(=O)N[C@@H](CCCCN)C(=O)O [PEP1, EARPALLTSRLRFIPK]
- cell proliferation in tumor (PCNA) (MC38 tumor): decrease
- decrease of HSP70 (HSP70 [1]; Jurkat cells, 5 μM): more than 50%
- amount of HSP70, comparison with HSP inhibitors (HSP70 [1]; Jurkat cells, PEP1 5 μM): decreased
- HSP70 level (HSP70 [1]; Jurkat cells): significantly decreased
- HSP70 decreased to, as compared with the control group (HSP70 [1]; MCF7 cells, 20 μM): 50%
- amount of HSP70, comparison with HSP inhibitors (HSP70 [1]; MCF7 cells, PEP1 20 μM): decrease
- HSP70 level (HSP70 [1]; MCF7 cells): significantly decreased
- effect of PEP1 on HSP90 with proteasome inhibitor (HSP90 [2]; PEP1 with MG132 5 μM): disappeared
- cell surface HSP90, compared with intracellular HSP (HSP90 [2]; cell surface staining): less affected
- intracellular HSP90 (HSP90 [2]; intracellular staining): decreases
- secreted HSP90 level in blood vs control group (HSP90 [3]): no changes
- amount of the secreted VEGF (VEGF): decreased
- effect of PEP1 on HSP70 with proteasome inhibitor (HSP70 [4]; PEP1 with MG132 5 μM): disappeared
- cell surface HSP70, compared with intracellular HSP (HSP70 [4]; cell surface staining): less affected
- intracellular HSP70 (HSP70 [4]; intracellular staining): decreases
